A value given as a limit tells only on which side of the number the result lay.

Protein sequences, listed by entry. Tags and fused reporters are not part of them. Residues count along the entry.
UniProt P01116, 1-188 isoform 2 G12C: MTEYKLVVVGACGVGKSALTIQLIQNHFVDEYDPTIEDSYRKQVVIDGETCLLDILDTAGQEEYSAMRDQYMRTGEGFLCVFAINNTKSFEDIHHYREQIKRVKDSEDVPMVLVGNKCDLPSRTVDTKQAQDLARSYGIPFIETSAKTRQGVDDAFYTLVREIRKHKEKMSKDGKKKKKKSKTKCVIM

This test deals with KRAS G12C (Homo sapiens, UniProt P01116, G12C). In words: phospho-ERK HTRF assay in Ras Initiative (RI) KRAS G12C cells. Conditions: read-out: pERK (RI) nM, phospho-ERK1/2 HTRF, 11-point dose response from 2,500 nM, treatment for either 4 hours or 16 hours. Here is the method:
Inhibition of KRAS G12C-Mediates Phospho-ERK1/2 Inhibition by Compounds of Formula I
This Example illustrates that various compounds of the present disclosure inhibit KRAS G12C thereby mediating the downstream inhibition of phospho-ERK1/2.
KRAS G12C mutant cell lines, NCI H358 (ATCC, CRL-5807), and Ras Initiative (R1) KRAS G12C were cultured according to published protocols and maintained at 37° C. in 5% CO2. The phospho-ERK HTRF assay was executed following provider's protocol (CisBio #64AERPEH). NCI-H358 or RI KRAS G12C cells were plated at a density of 50,000 cells per well in a 96-well plate (Corning #3903) in respective medias (for NCI-H358, RPMI+10% FBS+1% Pen/Strep, and for RI KRAS G12C, DMEM+10% FBS+1% Pen/Strep+4 ug/ml Blasticidin) and maintained at 37° C. in 5% CO2. Cells were allowed to adhere overnight and treated the following day with a Tecan D300e Digital Dispenser (Tecan Group Ltd., Switzerland) using an 11-point dose response starting at 2,500 nM of exemplified compounds followed by sequential 1:3 dilutions for either 4 hours or 16 hours. Following compound treatment, the cells were washed once with ice-cold PBS. Cells were lysed by adding 50 μl of lysis buffer (1×) supplemented with 1× Pierce Halt Protease and Phosphatase inhibitor and incubated for 30 minutes at 4° C. with shaking. After lysis, 16 μL of cell lysate from the 96-well cell-culture plate was transferred to a 384-well plate (Perkin Elmer #6007290). The premixed antibody solution was prepared by mixing (vol/vol) advanced phospho-ERK1/2 d2 antibody and advanced phospho-ERK1/2 Eu Cryptate antibody. The premixed antibody solution ([…]) was added to the detection plate containing cell lysate. The detection plate was incubated overnight at 4° C., the HTRF signal was read the next day by using either a Spectramax M5 or Spectramax i3 microplate reader (Molecular Devices, San Jose, CA, USA), and data was processed according to manufacturer's protocol.
Compounds prepared according to the preceding procedures and characterized for inhibition of p-ERK according to the protocol provided herein are summarized in Table 3: […]
Background: TR-FRET usually uses a lanthanide donor and a delayed reading to cut background.
`C=CC(=O)N1C(C)CN(c2nc(=O)n3c4c(c(-c5ccc(F)cc5)c(C(F)(F)F)cc24)SCC(c2ccsc2)C3)CC1C` (single isomer, unassigned) [Example 123]: the IC50 lay in the range of 20 to 250 nM. To `C=CC(=O)N1[C@H](C)CN(c2nc(=O)n3c4c(c(-c5cc(Cl)c(F)cc5F)c(C(F)(F)F)cc24)SC[C@H](c2ccncc2)C3)C[C@@H]1C` belongs 2 to 20 nM; to `C=CC(=O)N1[C@H](C)CN(c2nc(=O)n3c4c(c(-c5ccc(F)cc5F)c(C(F)(F)F)cc24)SC[C@@H](c2ccc(F)cc2)C3)C[C@@H]1C` [120], 20 to 250 nM.

As for `C=CC(=O)N1[C@H](C)CN(c2nc(=O)n3c4c(c(-c5cc(Cl)c(F)cc5F)c(C(F)(F)F)cc24)SC[C@H](c2cccnc2)C3)C[C@@H]1C` [105A], the IC50 fell in the range of 20 to 250 nM. The result for `C=CC(=O)N1[C@H](C)CN(c2nc(=O)n3c4c(c(-c5ccc(F)cc5)c(C(F)(F)F)cc24)SC[C@H](c2ccc(F)cc2)C3)C[C@@H]1C` reads 20 to 250 nM; that for `C=CC(=O)N1[C@H](C)CN(c2nc(=O)n3c4c(c(-c5cc(Cl)c(F)cc5F)c(C(F)(F)F)cc24)SC[C@H](c2cccnc2)C3)C[C@@H]1C` [105B], above 250 nM. The result for `C=CC(=O)N1C(C)CN(c2nc(=O)n3c4c(c(-c5ccc(F)cc5)c(C(F)(F)F)cc24)SCC(c2ccsc2)C3)CC1C` (single isomer, unassigned) [Example 122] reads 2 to 20 nM. To `C=CC(=O)N1[C@H](C)CN(c2nc(=O)n3c4c(c(-c5ccc(F)cc5F)c(C(F)(F)F)cc24)SC[C@@H](c2ccc(F)cc2)C3)C[C@@H]1C` [121] belongs 2 to 20 nM; to `C=CC(=O)N1[C@H](C)CN(c2nc(=O)n3c4c(c(-c5ccc(F)cc5F)c(C(F)(F)F)cc24)SC[C@H](c2ccc(F)cc2)C3)C[C@@H]1C` (atropisomer, axis not shown) [Example 118], 20 to 250 nM. As for `C=CC(=O)N1[C@H](C)CN(c2nc(=O)n3c4c(c(-c5cc(Cl)c(F)cc5F)c(C(F)(F)F)cc24)SC[C@H](c2cncc(F)c2)C3)C[C@@H]1C`, the IC50 fell in the range of 20 to 250 nM.

Source of the values: patent publication US20250313577A1, “TRICYCLIC PYRIDONES AND PYRIMIDONES” (ERASCA, INC, priority 2022, published 2025).
